# Format: physicochemical
# Description: Plasmids containing synthetic genes that encode the designed proteins were ordered through Genscript, Inc. (Piscataway, N.J., USA), cloned into the NdeI and XhoI sites of either pET2I-NESG or pET-28b vectors (see table 3). Plasmids were transformed into chemically competent E. coli expression strains BL21(DE3) Star (Invitrogen) or Lemo™21(DE3) (New England Biolabs). Following transformation, single colonies were picked from agar plates and grown overnight in 5 m starter cultures of Luria-Bertani (LB) medium containing 50 μg/mL carbenicillin (for pET21-NESG vectors) or kanamycin (for pET-28b vectors) with shaking at 225 rpm for 12-18 hours at 37° C. 5 ml starter cultures were added to 500 ml TBM-3052 with antibiotic for expression by autoinduction; cells were grown at 37° C. for 4-7 hours and temperature was dropped to 18° C. overnight. After 18-24 hours, cells were harvested by centrifugation for 15 minutes at 5000 ref at 4° C. and resuspended in 20 ml lysis buffer (25 mM Tris pH 8.0 at room temperature, 300 mM NaCl, 20 mM Imidazole).
# Cells were lysed by microfluidization in the presence of 1 mM PMSF. Lysates were clarified by centrifugation at 24,000 ref at 4° C. for at least 30 minutes. Proteins were purified by Immobilized metal affinity chromatography (IMAC): supernatant was applied to Ni-NTA (Qiagen) columns pre-equilibrated in lysis buffer. […]
molecule,measurement,value
"pRO-2-noHis: pRO-2 variant lacking histidine networks, inactive control, SEQ ID NO: 75-76 (protein) GSEYEIRKALEELKASTAELKRSTASLRASTEELKKNPSEDALVENNRLIVENNAIIVENNRIIAAVLELIVRAIK",solubility / behaviour in solution,well-behaved in solution
